Reference: patent US10800749B2, “Centrally active and orally bioavailable antidotes for organophosphate exposure and methods for making and using them” (dated 2020)

System: VX exposed mice
Assay: Antidotal efficacy of oximes in VX-exposed mice (protective index)

2-pyridinealdoxime methiodide
Protective index (VX, oxime p.o. 15 min before OP, atropine i.m. 1 min after OP): 1.1

N-(2-(4-Azatricyclo[4.3.1.13′8]undecan-4-yl)ethyl)-2-(hydroxyimino)acetamide
Protective index (VX exposed mouse, in vivo therapeutic efficacy): 10.8 (range is 9.1 to 12.7)
